Among the data in PMC10876215, “Nucleosome conformation dictates the histone code” (eLife, 2024) are EC50 values, retold here.

What all share (assay): AlphaScreen or HTRF; dCypher on the Alpha platform; biotinylated NCP (10 nM final) on streptavidin donor beads, GST-tagged Query titrated and held on glutathione acceptor beads; 20 mM HEPES pH 7.5, 250 mM NaCl, 0.01% BSA, 0.01% NP-40, 1 mM DTT; room temperature; relative EC50 (EC50^rel), not an equilibrium Kd
(In Alpha technology, singlet oxygen from a donor bead excites a nearby acceptor bead.)

In assay [1] the target is [H3K4me3K14ac • H3] heterotypic nucleosome core particle (UniProt P04908).
Assay [2] has as its target [H3K4me3 • H3K14ac] heterotypic nucleosome core particle (UniProt P04908).
In assay [3] the target is H3K4me3K14ac nucleosome core particle (homotypic, dCypher) (UniProt P04908).

pEC50: −log10 of the molar value.

In the case of “BPTF GST-PHD-BD (from UniProt Q12830 2865-3036) (domain or fragment)”, the values for the pEC50 in assay [1], in assay [2] and in assay [3] were 7.97, 6.58 and 8.14, respectively.

As usually defined, the pEC50 is the EC50 on a negative log10 scale, so that one unit is a factor of ten. A low value points to a high EC50.
